In PMC6838151, “New diphenylphosphane derivatives of ketoconazole are promising antifungal agents” (Scientific Reports, 2019):

Assays:
C. albicans B4 = assay type: cell-based, Candida albicans; conditions: B4 vs B3
[1] = test system: hASCs (p53, p21, BAX, BCL-2 transcripts); assay: Apoptosis-related transcripts by qRT-PCR in hASCs; assay type: cell-based, human; conditions: 20 µM, 24 h, vs control, differences not significant
Method: Cellular apoptosis level was assessed using quantitative reverse transcriptase real-time polymerase chain reaction (qRT-PCR). First, the cells were seeded in a 24-well plate at a concentration of 3 × 10^4 cells/well in DMEM with Nutrient F-12 Ham complete medium and left in the CO2 incubator overnight to allow cells to attach. The compounds (Ke, KeP and KeOP) were diluted in the fresh complete medium to a final concentration of 20 μM. After 24 h of challenge with the compounds, the cells were homogenized with TRI Reagent and total RNA was isolated by phenol-chloroform extraction and ethanol precipitation. RNA purity and quantity were measured at a wavelength of 260 and 280 nm (Epoch, Biotek). […] The expression levels of p53 tumor suppressor, cyclin dependent kinase inhibitor 1A (p21), apoptosis regulators BAX and BCL-2 were determined. qRT-PCR was performed on a CFX Connect^TM Real-Time PCR Detection System (Bio-Rad) using SensiFast SYBR & Fluorescein Kit (Bioline, Cincinnati, OH, USA) and primer pairs as listed in Table S4 in ESI. […] The quantitative expression of the genes was calculated by the 2^−ΔΔCT method using GAPDH as housekeeping genes.
Statistical analysis was performed with GraphPad Prism 5 software (San Diego, USA). All data values are presented as mean ± SD, measured in triplicates or more. […]

murine bone marrow cells = test system: murine bone marrow cells; parameters: method as in PMID 19967519; conditions: murine vs human bone marrow cells; cited from earlier work

CC(=O)N1CCN(c2ccc(OCC3COC(Cn4ccnc4)(c4ccc(Cl)cc4Cl)O3)cc2)CC1 (stereo not shown) [Ke, ketoconazole]
times higher resistance of B4 than B3 (C. albicans B4): eight | relative expression level of BAX [1]: higher | relative expression level of BCL-2 [1]: higher | IC50 fold higher for murine bone marrow cells in comparison to the human cells (murine bone marrow cells): ~3 fold
